Data published in patent publication US7901894B2, “Kinase inhibitors” (The Research Foundation of State University of New York, priority 1999, dated 2011).

Legend:
NRK cells = test: Growth of non-transformed normal rat kidney (NRK) cells; details: concentration increased up to 400 μM, LA25 at 40° C. and at 33° C.
LA25 cells = test: Growth of LA25 cells (temperature-sensitive pp60^v-src transformant of NRK); details: 25 μM; relative to LA25 growth at non-permissive 40° C.

O=C(Nc1cccc(O)c1)c1cc2ccc(O)cc2cc1O
basal cell growth (cell toxicity) (NRK cells): not only does not decrease but actually increases somewhat
inhibition of LA25 cell growth at permissive 33° C. (LA25 cells): approximately 50%
